Experimental data taken from patent US20240000946A1, “CARBONIC ANHYDRASE INHIBITORS SYNTHESIZED ON INTERCONNECTING LINKER CHAINS” (VILNIUS UNIVERSITY, priority 2020, published 2024).

By UniProt entry, the sequences of proteins in these tests, tags left out. Residues count along the entry.
UniProt P00915, 4-261 limits assumed: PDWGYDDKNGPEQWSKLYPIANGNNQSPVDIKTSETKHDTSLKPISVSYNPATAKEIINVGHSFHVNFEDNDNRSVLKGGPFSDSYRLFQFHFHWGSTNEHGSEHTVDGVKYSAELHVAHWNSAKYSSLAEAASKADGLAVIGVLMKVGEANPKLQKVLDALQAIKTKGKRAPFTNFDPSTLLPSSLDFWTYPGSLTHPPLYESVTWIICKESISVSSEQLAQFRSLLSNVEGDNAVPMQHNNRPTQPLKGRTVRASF
UniProt P07451, 3-259 limits assumed: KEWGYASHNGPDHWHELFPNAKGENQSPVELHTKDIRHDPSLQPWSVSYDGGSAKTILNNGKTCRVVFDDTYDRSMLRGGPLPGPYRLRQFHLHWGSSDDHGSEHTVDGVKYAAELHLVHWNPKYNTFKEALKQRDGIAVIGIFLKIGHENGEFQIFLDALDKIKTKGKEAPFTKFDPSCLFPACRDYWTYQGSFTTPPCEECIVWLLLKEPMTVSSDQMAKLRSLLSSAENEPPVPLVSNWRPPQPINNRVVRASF
UniProt P22748, 21-285 limits assumed: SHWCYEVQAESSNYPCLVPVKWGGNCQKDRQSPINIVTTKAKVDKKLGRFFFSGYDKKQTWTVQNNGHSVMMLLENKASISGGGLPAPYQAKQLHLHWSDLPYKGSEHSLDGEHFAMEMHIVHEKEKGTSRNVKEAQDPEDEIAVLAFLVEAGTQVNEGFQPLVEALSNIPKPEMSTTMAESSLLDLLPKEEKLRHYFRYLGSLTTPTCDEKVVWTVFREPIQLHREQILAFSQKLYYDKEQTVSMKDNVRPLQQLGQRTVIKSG
UniProt P35218, 39-296 limits assumed: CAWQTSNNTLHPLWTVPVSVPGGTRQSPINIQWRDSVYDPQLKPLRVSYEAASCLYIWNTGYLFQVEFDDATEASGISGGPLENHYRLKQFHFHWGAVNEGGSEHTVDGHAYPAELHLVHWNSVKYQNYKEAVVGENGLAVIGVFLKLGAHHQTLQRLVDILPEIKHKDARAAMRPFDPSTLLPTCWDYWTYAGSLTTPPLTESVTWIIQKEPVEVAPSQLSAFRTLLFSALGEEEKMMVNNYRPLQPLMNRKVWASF
UniProt Q9Y2D0, 37-296 limits assumed: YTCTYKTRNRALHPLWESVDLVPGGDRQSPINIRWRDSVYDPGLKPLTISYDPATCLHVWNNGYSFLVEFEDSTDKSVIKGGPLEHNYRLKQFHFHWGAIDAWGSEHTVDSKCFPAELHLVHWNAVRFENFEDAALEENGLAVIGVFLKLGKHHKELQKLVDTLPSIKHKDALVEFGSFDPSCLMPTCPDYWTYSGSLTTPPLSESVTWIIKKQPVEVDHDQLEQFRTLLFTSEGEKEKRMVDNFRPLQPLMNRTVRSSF
UniProt P23280, 21-278 limits assumed: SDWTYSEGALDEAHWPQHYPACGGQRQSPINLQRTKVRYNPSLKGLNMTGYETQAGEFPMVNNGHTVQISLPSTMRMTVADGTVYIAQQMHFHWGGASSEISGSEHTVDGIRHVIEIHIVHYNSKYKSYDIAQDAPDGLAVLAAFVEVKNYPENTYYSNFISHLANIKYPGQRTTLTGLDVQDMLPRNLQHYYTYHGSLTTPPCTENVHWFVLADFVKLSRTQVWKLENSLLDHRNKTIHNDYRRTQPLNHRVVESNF
UniProt P43166, 5-262 limits assumed: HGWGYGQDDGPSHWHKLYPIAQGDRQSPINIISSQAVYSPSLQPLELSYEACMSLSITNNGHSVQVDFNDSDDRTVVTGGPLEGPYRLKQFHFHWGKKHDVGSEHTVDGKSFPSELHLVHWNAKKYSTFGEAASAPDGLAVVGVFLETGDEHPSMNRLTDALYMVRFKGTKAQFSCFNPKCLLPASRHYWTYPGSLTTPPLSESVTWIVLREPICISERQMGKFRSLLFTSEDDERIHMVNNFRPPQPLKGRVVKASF
UniProt O43570, 30-289 limits assumed: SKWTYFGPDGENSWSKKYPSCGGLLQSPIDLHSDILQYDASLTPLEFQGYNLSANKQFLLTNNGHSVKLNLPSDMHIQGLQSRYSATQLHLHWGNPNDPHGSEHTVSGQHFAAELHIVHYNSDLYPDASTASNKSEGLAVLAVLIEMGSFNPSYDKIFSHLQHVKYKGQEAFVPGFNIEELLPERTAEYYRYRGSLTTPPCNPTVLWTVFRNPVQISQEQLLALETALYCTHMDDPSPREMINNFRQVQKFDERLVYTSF
UniProt Q8N1Q1, 4-261 limits assumed: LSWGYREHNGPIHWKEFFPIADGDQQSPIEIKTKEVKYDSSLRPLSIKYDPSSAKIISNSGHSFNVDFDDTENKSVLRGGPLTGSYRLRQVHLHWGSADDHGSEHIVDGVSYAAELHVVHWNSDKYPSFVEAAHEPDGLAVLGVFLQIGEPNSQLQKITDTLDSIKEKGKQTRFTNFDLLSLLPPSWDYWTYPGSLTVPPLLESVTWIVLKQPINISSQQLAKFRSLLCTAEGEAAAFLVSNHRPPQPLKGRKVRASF
UniProt Q9ULX7, 20-278 limits assumed: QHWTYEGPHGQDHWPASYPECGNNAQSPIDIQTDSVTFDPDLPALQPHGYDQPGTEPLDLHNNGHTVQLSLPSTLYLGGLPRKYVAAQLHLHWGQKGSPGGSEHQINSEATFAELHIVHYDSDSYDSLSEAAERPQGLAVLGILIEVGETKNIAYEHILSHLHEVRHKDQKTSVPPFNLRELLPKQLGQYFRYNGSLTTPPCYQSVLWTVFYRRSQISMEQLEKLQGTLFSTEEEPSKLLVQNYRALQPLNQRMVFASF

Columns and labels:
Format in all cases: binding
Details in all cases: 37° C., pH 7.0
human recombinant CA I = target: T1, human recombinant CA I (Homo sapiens, UniProt P00915); test: Fluorescent thermal shift assay (FTSA), CA I
T1 construct: recombinant human carbonic anhydrase catalytic domains using the fluorescent thermal shift assay; made in house

human recombinant CA II = target: T2, human recombinant CA II (Homo sapiens, UniProt P00918); test: Fluorescent thermal shift assay (FTSA), CA II
T2 construct: recombinant human carbonic anhydrase catalytic domains using the fluorescent thermal shift assay; made in house

human recombinant CA III = target: T3, human recombinant CA III (Homo sapiens, UniProt P07451); test: Fluorescent thermal shift assay (FTSA), CA III
T3 construct: recombinant human carbonic anhydrase catalytic domains using the fluorescent thermal shift assay; made in house

human recombinant CA IV = target: T4, human recombinant CA IV (Homo sapiens, UniProt P22748); test: Fluorescent thermal shift assay (FTSA), CA IV
T4 construct: recombinant human carbonic anhydrase catalytic domains using the fluorescent thermal shift assay; made in house

human recombinant CA VA = target: T5, human recombinant CA VA (Homo sapiens, UniProt P35218); test: Fluorescent thermal shift assay (FTSA), CA VA
T5 construct: recombinant human carbonic anhydrase catalytic domains using the fluorescent thermal shift assay; made in house

human recombinant CA VB = target: T6, human recombinant CA VB (Homo sapiens, UniProt Q9Y2D0); test: Fluorescent thermal shift assay (FTSA), CA VB
T6 construct: recombinant human carbonic anhydrase catalytic domains using the fluorescent thermal shift assay; made in house

human recombinant CA VI = target: T7, human recombinant CA VI (Homo sapiens, UniProt P23280); test: Fluorescent thermal shift assay (FTSA), CA VI
T7 construct: recombinant human carbonic anhydrase catalytic domains using the fluorescent thermal shift assay; made in house

human recombinant CA VII = target: T8, human recombinant CA VII (Homo sapiens, UniProt P43166); test: Fluorescent thermal shift assay (FTSA), CA VII
T8 construct: recombinant human carbonic anhydrase catalytic domains using the fluorescent thermal shift assay; made in house

human recombinant CA IX = target: T9, human recombinant CA IX (Homo sapiens, UniProt Q16790); test: Fluorescent thermal shift assay (FTSA), CA IX
T9 construct: recombinant human carbonic anhydrase catalytic domains using the fluorescent thermal shift assay; made in house

human recombinant CA XII = target: T10, human recombinant CA XII (Homo sapiens, UniProt O43570); test: Fluorescent thermal shift assay (FTSA), CA XII
T10 construct: recombinant human carbonic anhydrase catalytic domains using the fluorescent thermal shift assay; made in house

[1] = target: T11, human recombinant CA XIII (Homo sapiens, UniProt Q8N1Q1); test: Fluorescent thermal shift assay (FTSA), CA XIII
T11 construct: recombinant human carbonic anhydrase catalytic domains using the fluorescent thermal shift assay; made in house

human recombinant CA XIV = target: T12, human recombinant CA XIV (Homo sapiens, UniProt Q9ULX7); test: Fluorescent thermal shift assay (FTSA), CA XIV
T12 construct: recombinant human carbonic anhydrase catalytic domains using the fluorescent thermal shift assay; made in house

Molecule | Kd (human recombinant CA I) [nM] | Kd (human recombinant CA II) [nM] | Kd (human recombinant CA III) [nM] | Kd (human recombinant CA IV) [nM] | Kd (human recombinant CA VA) [nM] | Kd (human recombinant CA VB) [nM] | Kd (human recombinant CA VI) [nM] | Kd (human recombinant CA VII) [nM] | Kd (human recombinant CA IX) [nM] | Kd (human recombinant CA XII) [nM] | Kd [1] [nM] | Kd (human recombinant CA XIV) [nM]
Bis-(N′-[2-[2-(cyclooctylamino)-3,5,6-trifluoro-4-sulfamoyl-phenyl]sulfonylethyl]butanediamide)-mPEG2000 [Compound E20-1] | 8200 | 400 | ≥ 200000 | 120 | 8300 | 39 | 270 | 48 | 0.004 | 39 | 20 | 49
4arm-PEG5000-tetraacetamide, tetrakis-(N-[2-[2-(cyclooctylamino)-3,5,6-trifluoro-4-sulfamoyl-phenyl]sulfonylethyl]) [Compound E20-3] | 16000 | 1000 | > 200000 | 810 | 2500 | 52 | 330 | 63 | 0.009 | 63 | 34 | 40
N′-[2-[2-(cyclooctylamino)-3,5,6-trifluoro-4-sulfamoyl-phenyl]sulfonylethyl]-N-(2-O-methyl-mPEG75o)butanediamide [Compound E20-2] | 8500 | 350 | ≥ 200000 | 820 | 8200 | 58 | 560 | 53 | 0.1 | 49 | 23 | 100

Further lines, results first:

Kd (human recombinant CA I) [nM] | Kd (human recombinant CA II) [nM] | Kd (human recombinant CA III) [nM] | Kd (human recombinant CA IV) [nM] | Kd (human recombinant CA VA) [nM] | Kd (human recombinant CA VB) [nM] | Kd (human recombinant CA VI) [nM] | Kd (human recombinant CA VII) [nM] | Kd (human recombinant CA IX) [nM] | Kd (human recombinant CA XII) [nM] | Kd [1] [nM] | Kd (human recombinant CA XIV) [nM] | Molecule
≥ 200000 | ≥ 200000 | ≥ 200000 | ≥ 200000 | ≥ 200000 | ≥ 200000 | ≥ 200000 | ≥ 200000 | 1100 | ≥ 200000 | ≥ 200000 | > 200000 | Bis(3-aminopropyl)PEG1500, N,N′-bis(4-[(4-cyclohexylsulfanyl-3-sulfamoyl-benzoyl)amino]butanoyl) [LS20-1-5]
≥ 200000 | ≥ 200000 | ≥ 200000 | 23000 | ≥ 200000 | ≥ 200000 | > 200000 | ≥ 200000 | 1900 | ≥ 200000 | ≥ 200000 | ≥ 200000 | Bis(3-aminopropyl)PEG1500, N,N′-bis(4-cyclohexylsulfanyl-3-sulfamoyl-benzoyl) [LS20-2-5]
– | – | – | – | – | – | 330 | – | – | – | – | – | NS(=O)(=O)c1c(F)c(F)c(S(=O)(=O)CCNC(=O)CCOCCOCCOCCOCCOCCOCCOCCOCCOCCOCCOCCOCCOCCC(=O)NCCS(=O)(=O)c2c(F)c(F)c(S(N)(=O)=O)c(F)c2NC2CCCCCCC2)c(NC2CCCCCCC2)c1F [AZ19-3-2, N-[2-[2-(cyclooctylamino)-3,5,6-trifluoro-4-sulfamoyl-phenyl]sulfonylethyl]-3-[2-[2-[2-[2-[2-[2-[2-[2-[2-[2-[2-[2-[3-[2-[2-(cyclooctylamino)-3,5,6-trifluoro-4-sulfamoyl-phenyl]sulfonylethylamino]-3-oxo-propoxy]ethoxy]ethoxy]ethoxy]ethoxy]ethoxy]ethoxy]ethoxy]ethoxy]ethoxy]ethoxy]ethoxy]ethoxy]propanamide]
